How the values were obtained:
[1] = target: human JAK3 (a.a. 781-1124) (Homo sapiens, UniProt P52333); assay: In vitro JAK kinase assay (HTRF, phosphorylation of a biotinylated peptide), JAK3; settings: read-out: JAK3 IC50; Table B1; tested form: trifluoroacetate
[2] = target: human JAK1 (a.a. 837-1142) (Homo sapiens, UniProt P23458); assay: In vitro JAK kinase assay (HTRF, phosphorylation of a biotinylated peptide), JAK1; settings: read-out: JAK1 IC50; Table B1; tested form: trifluoroacetate
[3] = target: human JAK2 (a.a. 828-1132) (Homo sapiens, UniProt O60674); assay: In vitro JAK kinase assay (HTRF, phosphorylation of a biotinylated peptide), JAK2; settings: read-out: JAK2 IC50; Table B1; tested form: trifluoroacetate
TYK2 = TYK2 (Homo sapiens, UniProt P29597); assay: TYK2 kinase inhibition (Table A1); format: biochemical; settings: read-out: TYK2 IC50; Table B1; tested form: trifluoroacetate
[4] = target: Recombinant Human Anaplastic Lymphoma Kinase (Homo sapiens, UniProt Q9UM73); assay: ALK HTRF kinase assay; settings: read-out: ALK IC50; Table B1; cells without percent sign; tested form: trifluoroacetate

Chains of the proteins cited; added tags and fusions are not shown. Residues count along the entry.
UniProt P52333, 781-1124 limits assumed: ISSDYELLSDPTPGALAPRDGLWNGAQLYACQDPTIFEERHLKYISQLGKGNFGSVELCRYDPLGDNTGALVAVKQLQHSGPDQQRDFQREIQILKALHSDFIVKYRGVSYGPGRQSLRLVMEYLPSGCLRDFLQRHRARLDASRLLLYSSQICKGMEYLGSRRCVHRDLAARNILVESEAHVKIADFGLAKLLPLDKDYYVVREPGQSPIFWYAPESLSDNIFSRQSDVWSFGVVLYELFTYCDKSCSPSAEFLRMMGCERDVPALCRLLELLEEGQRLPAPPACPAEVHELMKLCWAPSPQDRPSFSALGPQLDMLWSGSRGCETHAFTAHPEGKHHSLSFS
UniProt P23458, 849-1154 limits assumed: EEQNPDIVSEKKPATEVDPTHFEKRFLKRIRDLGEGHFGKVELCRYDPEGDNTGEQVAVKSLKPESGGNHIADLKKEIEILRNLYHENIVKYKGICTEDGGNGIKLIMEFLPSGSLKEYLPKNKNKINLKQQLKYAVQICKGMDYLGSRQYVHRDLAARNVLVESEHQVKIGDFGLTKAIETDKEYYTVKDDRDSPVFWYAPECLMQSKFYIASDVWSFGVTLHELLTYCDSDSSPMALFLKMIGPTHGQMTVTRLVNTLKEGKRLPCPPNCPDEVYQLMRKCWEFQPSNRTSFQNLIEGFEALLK
UniProt O60674, 828-1132 limits assumed: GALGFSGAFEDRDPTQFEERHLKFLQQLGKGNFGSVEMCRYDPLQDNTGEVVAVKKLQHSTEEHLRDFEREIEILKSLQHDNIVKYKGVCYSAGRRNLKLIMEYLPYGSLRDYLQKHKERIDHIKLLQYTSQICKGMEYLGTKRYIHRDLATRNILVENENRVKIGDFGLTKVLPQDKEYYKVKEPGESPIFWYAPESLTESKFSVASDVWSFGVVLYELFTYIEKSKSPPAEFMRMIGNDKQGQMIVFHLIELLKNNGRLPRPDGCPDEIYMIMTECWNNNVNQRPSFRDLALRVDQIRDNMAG
UniProt P29597, whole entry: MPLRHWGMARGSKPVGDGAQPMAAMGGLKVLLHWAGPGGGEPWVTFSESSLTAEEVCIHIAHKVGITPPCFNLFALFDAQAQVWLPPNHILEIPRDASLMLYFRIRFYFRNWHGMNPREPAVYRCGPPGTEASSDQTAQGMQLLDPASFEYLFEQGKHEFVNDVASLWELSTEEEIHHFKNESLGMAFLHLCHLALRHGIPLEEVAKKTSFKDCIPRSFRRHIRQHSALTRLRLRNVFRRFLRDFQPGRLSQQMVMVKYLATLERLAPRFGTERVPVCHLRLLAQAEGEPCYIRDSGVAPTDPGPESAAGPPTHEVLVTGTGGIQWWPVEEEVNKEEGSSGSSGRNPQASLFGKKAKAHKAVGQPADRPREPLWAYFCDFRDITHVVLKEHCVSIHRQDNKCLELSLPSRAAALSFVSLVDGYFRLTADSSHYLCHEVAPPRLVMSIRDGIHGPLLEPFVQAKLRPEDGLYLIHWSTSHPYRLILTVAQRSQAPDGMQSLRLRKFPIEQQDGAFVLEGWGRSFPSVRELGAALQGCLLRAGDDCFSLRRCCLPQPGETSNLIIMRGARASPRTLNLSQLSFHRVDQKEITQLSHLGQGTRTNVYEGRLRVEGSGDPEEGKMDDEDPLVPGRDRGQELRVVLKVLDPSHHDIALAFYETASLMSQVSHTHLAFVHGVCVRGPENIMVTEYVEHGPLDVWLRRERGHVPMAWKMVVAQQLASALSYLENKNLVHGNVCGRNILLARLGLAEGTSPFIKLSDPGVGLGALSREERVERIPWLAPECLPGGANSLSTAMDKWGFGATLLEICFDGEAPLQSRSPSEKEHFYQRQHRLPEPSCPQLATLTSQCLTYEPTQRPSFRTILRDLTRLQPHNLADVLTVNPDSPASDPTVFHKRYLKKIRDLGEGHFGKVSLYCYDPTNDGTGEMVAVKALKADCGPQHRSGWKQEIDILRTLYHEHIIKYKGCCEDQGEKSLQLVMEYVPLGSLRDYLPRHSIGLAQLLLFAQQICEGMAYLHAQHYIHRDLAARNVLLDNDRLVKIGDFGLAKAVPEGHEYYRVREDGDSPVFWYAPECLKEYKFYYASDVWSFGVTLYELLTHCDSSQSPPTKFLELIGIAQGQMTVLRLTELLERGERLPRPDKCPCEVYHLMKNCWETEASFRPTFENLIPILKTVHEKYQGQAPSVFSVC
UniProt Q9UM73, 19-1620 limits assumed: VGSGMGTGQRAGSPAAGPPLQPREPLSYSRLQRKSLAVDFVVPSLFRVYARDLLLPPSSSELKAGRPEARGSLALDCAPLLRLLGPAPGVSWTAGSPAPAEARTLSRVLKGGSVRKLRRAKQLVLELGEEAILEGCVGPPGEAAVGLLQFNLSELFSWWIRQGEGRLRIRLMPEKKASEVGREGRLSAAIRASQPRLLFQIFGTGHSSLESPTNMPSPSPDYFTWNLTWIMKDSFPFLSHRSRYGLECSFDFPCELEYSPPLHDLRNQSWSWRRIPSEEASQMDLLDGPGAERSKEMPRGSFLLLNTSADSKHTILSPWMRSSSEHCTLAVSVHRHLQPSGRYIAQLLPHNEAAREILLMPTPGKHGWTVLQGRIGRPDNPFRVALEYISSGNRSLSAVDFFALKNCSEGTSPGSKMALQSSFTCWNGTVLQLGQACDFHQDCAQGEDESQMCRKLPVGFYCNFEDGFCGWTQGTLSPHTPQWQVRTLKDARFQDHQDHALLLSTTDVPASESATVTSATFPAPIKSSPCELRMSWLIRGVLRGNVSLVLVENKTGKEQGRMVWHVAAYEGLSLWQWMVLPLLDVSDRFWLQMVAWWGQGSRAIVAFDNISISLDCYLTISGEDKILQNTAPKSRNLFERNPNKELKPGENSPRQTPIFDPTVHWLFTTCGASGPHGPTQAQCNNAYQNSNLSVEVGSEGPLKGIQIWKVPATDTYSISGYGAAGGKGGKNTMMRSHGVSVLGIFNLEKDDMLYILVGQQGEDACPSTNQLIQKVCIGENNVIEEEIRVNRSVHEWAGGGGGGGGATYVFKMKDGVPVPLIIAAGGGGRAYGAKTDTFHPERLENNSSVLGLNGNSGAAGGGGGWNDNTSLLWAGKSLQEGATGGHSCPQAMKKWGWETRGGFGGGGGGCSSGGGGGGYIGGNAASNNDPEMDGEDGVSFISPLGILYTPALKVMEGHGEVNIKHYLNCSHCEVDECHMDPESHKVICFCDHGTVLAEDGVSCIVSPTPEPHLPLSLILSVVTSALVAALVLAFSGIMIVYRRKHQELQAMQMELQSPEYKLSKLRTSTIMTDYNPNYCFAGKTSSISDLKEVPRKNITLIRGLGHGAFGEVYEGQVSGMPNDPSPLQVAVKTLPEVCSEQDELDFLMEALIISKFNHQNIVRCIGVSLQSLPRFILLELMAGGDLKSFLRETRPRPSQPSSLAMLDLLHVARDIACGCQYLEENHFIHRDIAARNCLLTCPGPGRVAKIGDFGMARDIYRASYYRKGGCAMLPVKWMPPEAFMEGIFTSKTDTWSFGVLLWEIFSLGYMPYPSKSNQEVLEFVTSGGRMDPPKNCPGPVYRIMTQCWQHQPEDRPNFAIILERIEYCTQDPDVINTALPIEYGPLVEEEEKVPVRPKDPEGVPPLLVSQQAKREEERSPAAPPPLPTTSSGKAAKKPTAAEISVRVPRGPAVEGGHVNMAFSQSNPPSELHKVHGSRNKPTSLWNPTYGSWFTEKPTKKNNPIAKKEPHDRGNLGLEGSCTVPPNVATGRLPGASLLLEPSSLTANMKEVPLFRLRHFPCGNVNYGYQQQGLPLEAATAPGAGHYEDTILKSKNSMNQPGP

Cc1oncc1S(=O)(=O)Nc1ccc2cc1CCc1cccc(c1)Nc1ncc(Cl)c(n1)N2
IC50 [1]: 12 nM | IC50 [2]: 0.8 nM | IC50 [3]: 0.17 nM | IC50 (TYK2): 0.84 nM | IC50 [4]: 1200 nM

Reference: US8871753B2, “Macrocyclic compounds and their use as kinase inhibitors” (Incyte Corporation, priority 2008, dated 2014)
